Molecular target: T1, Human IL-17A (human, UniProt Q16552 24-155)
T1 construct: Used in solution at a fixed concentration (75 nM with tracer BCY13196); also called Interleukin-17; CTLA-8
T1 sequence (looked up): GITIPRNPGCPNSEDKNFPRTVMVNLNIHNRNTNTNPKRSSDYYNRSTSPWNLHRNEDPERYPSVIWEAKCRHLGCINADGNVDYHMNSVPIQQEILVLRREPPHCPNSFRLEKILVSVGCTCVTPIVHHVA
Experiment: fluorescence polarization competition, 75 nM human IL-17A, 1 nM tracer BCY13196, mean of n=3
Procedure: Affinity determination by fluorescence polarization (FP) competition. Bicycles were screened to determine affinity (Ki) in a fluorescence polarisation assay where in competition with a bicycle labelled with fluorescein (referred to as tracer) with a known affinity for IL-17A. Peptides were diluted to an appropriate concentration in assay buffer (PBS+0.01% Tween20, adjusted to pH7.4 using NaOH (1M)) with a maximum of 1% DMSO, then serially diluted 1 in 2 into assay buffer. Into black 384-well low volume plates, 5 μL of diluted peptide was added to the plate followed by 10 μL of IL-17A at a fixed concentration (75 nM IL-17A for tracer BCY13196, 50 nM IL-17A for tracer BCY13351), then 10 μL tracer added to a final concentration of 1 nM. Measurements were conducted on a BMG PHERAstar FS equipped with an “FP 485 520 520” optic module which excites at 485 nm and detects parallel and perpendicular emission at 520 nm. The PHERAstar FS was set at 25° C. with 200 flashes per well and a positioning delay of 0.1 second, with each well measured at 5 to 10 minute intervals for 60 minutes. The gain used for measurements was determined at the point of experiment on a tracer alone well. […]
Selected peptide ligands of the invention were tested in the above mentioned IL-17A human fluorescence polarization (FP) competition assay and the results are shown in Table 1: […]

- Ki: 0.262 µM
B1: BCY13057 (peptide)
peptide: ACPQDLELCTFLFGDCA
modifications: the three cysteine residues (Ci, Cii, Ciii) are covalently bound to the TATA scaffold (1,1',1''-(1,3,5-triazinane-1,3,5-triyl)triprop-2-en-1-one), forming two loops
notes: Synthetic bicyclic peptide cyclised on TATA; also called bicyclic peptide ligand specific for IL-17A

Reference: patent US20230039677A1, “BICYCLIC PEPTIDE LIGANDS SPECIFIC FOR IL-17” (BicycleTx Limited, priority 2019, published 2023)
